Our source for the IC50 values is patent publication US20090226500A1, “SUTURES AND ANTI-SCARRING AGENTS” (Angiotech Pharmaceuticals, Inc, priority 2006, published 2009).

In the assay the test system is nitric oxide production by macrophages (murine macrophage cell line RAW 264.7). The assay is described as follows: Nitric oxide production by macrophages. As to conditions: read-out: IC50 nitric oxide (nitrite) production. It counts as cell-based.
The mark [1] stands for this setting: Mus musculus, RAW264.7, RAW 264.7 cells stimulated with IFNγ and LPS, 24 hours.

Like-named read-outs stand apart in the source and are kept apart here.

`COC1=C2C[C@@H](C)C[C@H](OC)[C@H](O)[C@@H](C)/C=C(\C)[C@H](OC(N)=O)[C@@H](OC)/C=C\C=C(/C)C(=O)NC(=CC1=O)C2=O` [geldanamycin]: under setting [1], the IC50 came to 51 nM.
Consider `C=CCNC1=C2C[C@@H](C)C[C@H](OC)[C@H](O)[C@@H](C)/C=C(\C)[C@H](OC(N)=O)[C@@H](OC)/C=C\C=C(/C)C(=O)NC(=CC1=O)C2=O` [17-AAG, 17-allylaminogeldanamycin], for which the IC50 (RAW 264.7 cells stimulated with IFNγ and LPS, 24 hours) stood at 840 nM.
On to `CC(=O)O[C@H]1C(=O)[C@@]2(C)[C@H]([C@H](OC(=O)c3ccccc3)[C@]3(O)C[C@H](OC(=O)[C@H](O)[C@@H](NC(=O)c4ccccc4)c4ccccc4)C(C)=C1C3(C)C)[C@]1(OC(C)=O)CO[C@@H]1C[C@@H]2O` [paclitaxel, 5β,20-epoxy-1,2 alpha,4,7β,10β,13 alpha-hexahydroxytax-11-en-9-one-4,10-diacetate-2-benzoate-13-(alpha-phenylhippurate)], for which, under setting [1], the IC50 came out at 7 nM.
With `O=C(CC1NCCCC1O)Cn1cnc2cc(Br)c(Cl)cc2c1=O` (stereo not shown) [halofuginone], the IC50 (Mus musculus, RAW264.7, 24 h) came to 12 nM.
